Measurements from PubChem BioAssay AID465 (The Scripps Research Institute Molecular Screening Center, 2006).
The entries are a selection whose mix differs from that of the whole data set. Active and inactive are the calls of the source.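 Rule for the calls: active = inhibition above the mean of all tested compounds plus 3 SD (cut at about 40% in these data); inactive = the rest.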

Assay: lowered NF-kB luciferase signal in HEK293 cells – cell-based, HEK-293 luciferase reporter, PMA/ionomycin, luminescence, antigen receptor NF-kB inhibitor project, primary screen (AID 465);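 note: 0% = stimulated DMSO wells and 100% = 10 µM reference inhibitor 5653914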
Conditions: HEK-293 NF-kB luciferase reporter, at 3 µM, active compounds read high
With `COc1ccccc1OP(C)(=O)Nc1ccc(C)c(C)c1` (configuration not stated) the inhibition was inactive: 14.2%.
With `Cc1nc2ccc3ccccc3c2o1.O=[N+]([O-])c1cc([N+](=O)[O-])c(O)c([N+](=O)[O-])c1` the inhibition was inactive: 3.5%.
For `CP(=O)(Nc1ccccn1)Oc1ccccc1` (configuration not stated), the inhibition was inactive: 7.9%.
For `CP(=O)(Oc1ccccc1)N1CCOC1=O` (configuration not stated), the inhibition was inactive: -1.7%.
With `COc1ccccc1OP(C)(=O)Nc1c(C)n(C)n(-c2ccccc2)c1=O` (configuration not stated) the inhibition was inactive: 16.6%.
With `CN(C)CCOC(=O)C(O)(c1ccccc1)C1CCCCC1` (configuration not stated) the inhibition was inactive: 18.2%.
For `CCOP(C)(=S)SCC(=O)NC(C)(CC)C(=O)O` (configuration not stated), the inhibition was inactive: 12.5%.
With `CP(=O)(Nc1ccc2c(c1)OCCO2)Oc1ccccc1` (configuration not stated) the inhibition was inactive: 5.7%.
In the case of `Cc1ccccc1NP(C)(=O)Nc1ccccc1C`, the inhibition is reported as inactive: -0.3%.
In the case of `CP(=O)(Nc1ccccc1F)Oc1ccccc1` (configuration not stated), the inhibition is reported as inactive: 1.7%.
With `Cc1ccc(C)c(NP(C)(=O)Oc2ccccc2)c1` (configuration not stated) the inhibition was inactive: 6.9%.
In the case of `Cc1nc2ccc3ccccc3c2s1.O=[N+]([O-])c1cc([N+](=O)[O-])c(O)c([N+](=O)[O-])c1`, the inhibition is reported as inactive: 24.6%.
In the case of `CP(=S)(Nn1cnnc1)Oc1ccccc1` (configuration not stated), the inhibition is reported as inactive: 12.1%.
With `CP(=O)(NC(=O)Nc1ccccc1)Oc1ccccc1` (configuration not stated) the inhibition was inactive: 6.3%.
For `CCOP(C)(=S)SCC(=O)NC(C)C(=O)O` (configuration not stated), the inhibition was inactive: 16.7%.
In the case of `COc1ccccc1OP(C)(=O)Nc1ccc(C)cc1` (configuration not stated), the inhibition is reported as inactive: -1.2%.
In the case of `Cc1ccc(NP(C)(=O)Oc2ccccc2)c(C)c1` (configuration not stated), the inhibition is reported as inactive: 12.8%.
